Laboratory results reported in IntAct's records for PubMed 19202075.

B1: Beta-arrestin-1 (Rattus norvegicus (Rat)), P29066 (parent)
chain: MGDKGTRVFKKASPNGKLTVYLGKRDFVDHIDLVDPVDGVVLVDPEYLKERRVYVTLTCAFRYGREDLDVLGLTFRKDLFVANVQSFPPAPEDKKPLTRLQERLIKKLGEHAYPFTFEIPPNLPCSVTLQPGPEDTGKACGVDYEVKAFCAENLEEKIHKRNSVRLVIRKVQYAPERPGPQPTAETTRQFLMSDKPLHLEASLDKEIYYHGEPISVNVHVTNNTNKTVKKIKISVRQYADICLFNTAQYKCPVAMEEADDTVAPSSTFCKVYTLTPFLANNREKRGLALDGKLKHEDTNLASSTLLREGANREILGIIVSYKVKVKLVVSRGGLLGDLASSDVAVELPFTLMHPKPKEEPPHREVPESETPVDTNLIELDTNDDDIVFEDFARQRLKGMKDDKDEEDDGTGSPHLNNR

Variants of: B1
Conditions: with src_human SRC

Variant	effect of a mutation on the interaction
S412D	decreasing interaction
